Chains of the proteins cited; added tags and fusions are not shown. Lines headed by an entry give the natural chain unless they say otherwise; changes in a name come on top.
UniProt P11511: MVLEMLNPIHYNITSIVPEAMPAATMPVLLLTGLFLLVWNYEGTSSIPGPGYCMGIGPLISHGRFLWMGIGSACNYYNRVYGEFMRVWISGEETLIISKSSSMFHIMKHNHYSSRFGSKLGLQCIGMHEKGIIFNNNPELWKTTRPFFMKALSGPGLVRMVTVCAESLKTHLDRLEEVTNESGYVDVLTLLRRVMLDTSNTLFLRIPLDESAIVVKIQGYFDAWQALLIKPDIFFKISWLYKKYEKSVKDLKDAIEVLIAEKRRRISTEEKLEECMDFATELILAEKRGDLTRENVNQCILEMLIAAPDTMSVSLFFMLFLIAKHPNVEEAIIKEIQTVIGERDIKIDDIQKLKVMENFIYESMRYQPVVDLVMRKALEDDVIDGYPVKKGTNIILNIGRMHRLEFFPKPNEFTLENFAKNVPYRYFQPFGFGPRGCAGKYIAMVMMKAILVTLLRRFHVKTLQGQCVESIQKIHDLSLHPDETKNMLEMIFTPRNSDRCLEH

According to EP0390558B1, “Aromatase inhibiting 4(5)-imidazoles” (ORION-YHTYMÄ OY, priority 1989, dated 1990):

What follows are compounds tested against Human aromatase enzyme (Homo sapiens, UniProt P11511) (assay: In vitro aromatase inhibition assay (3H2O release from 1,2[3H]-androstene-3,17-dione)).

In order of rising IC50:
1. Cc1ccc(C(CCCc2c[nH]cn2)c2ccccc2)cc1 (stereo not drawn) [Compound 1a, 4-[4-(4-methylphenyl)-4-phenylbutyl]-1H-imidazole]  2.9 µM
2. COc1ccc(C(CCCc2c[nH]cn2)c2ccccc2)cc1 (stereo not drawn) [Compound 11a, 4-[4-(4-methoxyphenyl)-4-phenylbutyl]-1H-imidazole]  3.5 µM
3. Cc1ccc(C(CCCc2c[nH]cn2)c2ccccc2)cc1C (stereo not drawn) [Compound 15a, 4-[4-(3,4-dimethylphenyl)-4-phenylbutyl]-1H-imidazole]  5 µM
4. c1ccc(Cn2cncc2CCCC(c2ccccc2)c2ccccc2)cc1 [Compound 10a, 1-benzyl-5-(4,4-diphenylbutyl)-1H-imidazole]  7 µM
5. Cc1cc(C)cc(C(CCCc2c[nH]cn2)c2ccccc2)c1 (stereo not drawn) [Compound 14a, 4-[4-(3,5-dimethylphenyl)-4-phenylbutyl]-1H-imidazole]  7.5 µM
6. Cc1ccccc1C(CCCc1cncn1Cc1ccccc1)c1ccccc1 (stereo not drawn) [Compound 6a, 1-benzyl-5-[4-(2-methylphenyl)-4-phenylbutyl]-1H-imidazole]  8.5 µM
7. C(=Cc1c[nH]cn1)CC(c1ccccc1)c1ccccc1 [Compound 22a, 4-(4,4-diphenyl-1-butenyl)-1H-imidazole]  8.5 µM
8. COc1ccc(C(CCCc2c[nH]cn2)c2ccc(OC)cc2)cc1 [Compound 12a, 4-[4,4-bis(4-methoxyphenyl)butyl]-1H-imidazole]  10 µM
9. Cc1cccc(C(CCCc2cncn2Cc2ccccc2)c2ccccc2)c1 (stereo not drawn) [Compound 3a, 1-benzyl-5-[4-(3-methylphenyl)-4-phenylbutyl]-1H-imidazole]  13 µM
10. c1ccc(CC(CCCc2cncn2Cc2ccccc2)c2ccccc2)cc1 (stereo not drawn) [Compound 7a, 1-benzyl-5-(4,5-diphenylpentyl)-1H-imidazole]  15 µM
11. Cc1ccc(C(CCCc2cncn2Cc2ccccc2)c2ccccc2)cc1 (stereo not drawn) [Compound 2a, 1-benzyl-5-[4-(4-methylphenyl)-4-phenylbutyl]-1H-imidazole]  19 µM
12. Cc1cccc(C(CCCc2c[nH]cn2)c2cc(C)cc(C)c2)c1 (stereo not drawn) [Compound 16a, 4-[4-(3,5-dimethylphenyl)-4-(3-methylphenyl)butyl]-1H-imidazole]  125 µM
